From ChEMBL document CHEMBL3808281, “Investigation of the Structure-Activity Relationships of Aza-A-Ring Indenoisoquinoline Topoisomerase I Poisons” (J Med Chem, 2016)

Assay: Cytotoxicity against human NCI60 cells assessed as cell growth at 10 uM after 48 hrs
Type: functional
Details: NCI60, 48 h, read-out: Activity

For `CN(C)CCCn1c2c(c3ccncc3c1=O)C(=O)c1ccccc1-2`, the growth at 10 µM was -9.25%.
